PubChem BioAssay (NCI)
The entries are a selection whose mix differs from that of the whole data set. Active and inactive are the calls of the source. Rule as the data show it: active = growth inhibition above about 70%; inactive = the rest.

test: NCI Yeast Anticancer Drug Screen. Data for the cln2 rad14 strain (AID 165);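 also: 0% = growth equal to vehicle treated cultures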; settings: S. cerevisiae cln2 rad14 strain, at 50.0 µM, hits give high values

Row | SMILES | growth inhibition
1 | N/C=N/P(=O)(Oc1ccccc1)Oc1ccccc1 | inactive: 8.65%
2 | C=CCC[P+](C)(c1ccccc1)c1ccccc1 | inactive: -35%
3 | BrCCN(CCBr)c1cccc2ccccc12 | inactive: 17.4%
4 | [O-]/[N+](C/[N+]([O-])=N/O)=N\O | inactive: -37.8%
5 | CCCCOP(OCCCC)OCCCC | inactive: 3.3%
6 | O=P1(Nc2ncccn2)OC(CCl)=NC1c1ccc(C2N=C(CCl)OP2(=O)Nc2ncccn2)cc1 (centres undefined) | inactive: -10.1%
7 | O=C(OCc1ccc([N+](=O)[O-])cc1)Oc1c(Cl)cc([N+](=O)[O-])cc1[N+](=O)[O-] | inactive: -12.2%
8 | CN(C)P(N)(Cl)(c1ccccc1)c1ccccc1 | inactive: -11.2%
9 | C[Si](C)(C)CCCNCCCl | inactive: 30.6%
10 | C[C@@H]1[C@@H](C)[N+]1(C)C | inactive: 0.95%
11 | O=P1(N(CCCl)CCCl)OCCCN1Br (centres undefined) | inactive: 15.8%
12 | CC(C)OC(=O)N1N=C(OC(C)C)OP12=NC(c1ccccc1)=NN2C (centres undefined) | inactive: -6.1%
13 | O=CCCOP(=O)(N(CCCl)CCCl)N1CC1 (centres undefined) | inactive: -10.7%
14 | O=[N+]([O-])c1cc([N+](=O)[O-])c(OCC(O)CO)c([N+](=O)[O-])c1 (centres undefined) | inactive: -6.5%
15 | COP(=O)(OC)N(C)[Si](C)(C)C | inactive: -1.35%
16 | O=[N+]([O-])c1ccc(NCCSSCCNc2ccc([N+](=O)[O-])cc2[N+](=O)[O-])c([N+](=O)[O-])c1 | inactive: 27.9%
17 | COC(=O)C(CCl)(NC(C)=O)SC(C)=O (centres undefined) | inactive: 2.15%
18 | [N-]=[N+]=NCC(O)CN=[N+]=[N-] (centres undefined) | inactive: 5.8%
19 | CCN(CC)CCNc1cc(OC)cc2nccnc12 | inactive: -28.1%
20 | O=C(CC[N+](=O)[O-])OCC1OC(OC(=O)CC[N+](=O)[O-])C(OC(=O)CC[N+](=O)[O-])C(O)C1O (centres undefined) | inactive: -0.3%
21 | O=[N+]([O-])N=C1NCCN1 | inactive: 17.6%

test: NCI Yeast Anticancer Drug Screen. Data for the bub3 strain (AID 167); settings: S. cerevisiae bub3 mutant strain, at 50.0 µM, hits give high values

Row | SMILES | growth inhibition
22 | O=C1C(Cl)=C(NCCCl)C(=O)C(Cl)=C1NCCCl | inactive: 16.6%
23 | O=C(CSc1ccccn1)c1ccccc1 | inactive: 13.1%
24 | NC1=NP(=O)(Oc2ccccc2)N=C(Nc2ccccc2)N1 (centres undefined) | inactive: -6.65%
25 | CCCCOP(=O)(OCCCC)N1CCCC1C(=O)O (centres undefined) | inactive: -21.3%
26 | O=C(OCc1ccc([N+](=O)[O-])cc1)N(CCCl)CCCl | inactive: 37.7%
27 | CC1COP(N(C(C)C)C(C)C)O1 (centres undefined) | inactive: -6.85%
28 | NP(=O)(OCCCCO)N(CCCl)CCCl (centres undefined) | inactive: 8.5%
29 | ClCCNCc1ccc2c(c1)OCO2 | inactive: -20.6%
30 | FC(Cl)C(F)(F)Sc1ccc(Cl)cc1 (centres undefined) | inactive: -41%
31 | O=C1CCC(C(=O)OC2CN3CCC2CC3)C(=O)N1 (centres undefined) | inactive: -2%
32 | ClCCN1CN(CCCl)c2ccccc21 | inactive: -9.95%
33 | Cc1c([N+](=O)[O-])c([N+](=O)[O-])c(CCn2cnc3c(N(CCO)CCO)ncnc32)c([N+](=O)[O-])c1[N+](=O)[O-] | inactive: 4.7%
34 | C[n+]1cc(-c2ccccc2)cc2ccccc21 | inactive: 0.05%
35 | O=[N+]([O-])c1cccc(S(=O)(=O)N(CCCl)CCCl)c1 | inactive: 28.5%
36 | O=C(O)C(CCCNc1ccc([N+](=O)[O-])cc1[N+](=O)[O-])Nc1ccc([N+](=O)[O-])cc1[N+](=O)[O-] (centres undefined) | inactive: 5.65%
37 | [N-]=[N+]=Nc1cc(N)c([N+](=O)[O-])cc1[N+](=O)[O-] | inactive: -7.35%
38 | CN(C)NC(=O)NP(=O)(NC(=O)NN(C)C)NC(=O)NN(C)C | inactive: 10%
39 | N/C=N/P(=O)(Oc1ccccc1)Oc1ccccc1 | inactive: 7.1%
40 | C=CCC[P+](C)(c1ccccc1)c1ccccc1 | inactive: -1.4%

Row | SMILES | growth inhibition
41 | BrCCN(CCBr)c1cccc2ccccc12 | inactive: -23.1%
42 | [O-]/[N+](C/[N+]([O-])=N/O)=N\O | inactive: 32.1%
43 | CCCCOP(OCCCC)OCCCC | inactive: 0.75%
44 | O=P1(Nc2ncccn2)OC(CCl)=NC1c1ccc(C2N=C(CCl)OP2(=O)Nc2ncccn2)cc1 (centres undefined) | inactive: 8.6%
45 | O=C(OCc1ccc([N+](=O)[O-])cc1)Oc1c(Cl)cc([N+](=O)[O-])cc1[N+](=O)[O-] | inactive: 15.6%
46 | CN(C)P(N)(Cl)(c1ccccc1)c1ccccc1 | inactive: 11.7%
47 | C[Si](C)(C)CCCNCCCl | inactive: 41.2%
48 | C[C@@H]1[C@@H](C)[N+]1(C)C | inactive: 0.35%
49 | O=P1(N(CCCl)CCCl)OCCCN1Br (centres undefined) | inactive: -2.3%
50 | CC(C)OC(=O)N1N=C(OC(C)C)OP12=NC(c1ccccc1)=NN2C (centres undefined) | inactive: -2.2%
51 | O=CCCOP(=O)(N(CCCl)CCCl)N1CC1 (centres undefined) | inactive: -27.1%
52 | O=[N+]([O-])c1cc([N+](=O)[O-])c(OCC(O)CO)c([N+](=O)[O-])c1 (centres undefined) | inactive: -4.65%
53 | COP(=O)(OC)N(C)[Si](C)(C)C | inactive: -19.6%
54 | O=[N+]([O-])c1ccc(NCCSSCCNc2ccc([N+](=O)[O-])cc2[N+](=O)[O-])c([N+](=O)[O-])c1 | inactive: 8.95%
55 | COC(=O)C(CCl)(NC(C)=O)SC(C)=O (centres undefined) | inactive: 6.45%
56 | [N-]=[N+]=NCC(O)CN=[N+]=[N-] (centres undefined) | inactive: 4.05%
57 | CCN(CC)CCNc1cc(OC)cc2nccnc12 | inactive: -12.1%
58 | O=C(CC[N+](=O)[O-])OCC1OC(OC(=O)CC[N+](=O)[O-])C(OC(=O)CC[N+](=O)[O-])C(O)C1O (centres undefined) | inactive: -10.2%
59 | O=[N+]([O-])N=C1NCCN1 | inactive: 10.4%
